Experiment [1] addresses Cathepsin B (Homo sapiens) (UniProt P07858). In words: Apparent inhibitory constant against human cathepsin B.
For experiment [2], the target named is Procathepsin L (Homo sapiens) (UniProt P07711).
The target in experiment [3] is Cathepsin S (Homo sapiens) (UniProt P25774). Description: Apparent inhibitory constant against human cathepsin S.
In experiment [4] the target is T1, Cathepsin K (Oryctolagus cuniculus) (UniProt P43236).
T1 sequence (whole entry): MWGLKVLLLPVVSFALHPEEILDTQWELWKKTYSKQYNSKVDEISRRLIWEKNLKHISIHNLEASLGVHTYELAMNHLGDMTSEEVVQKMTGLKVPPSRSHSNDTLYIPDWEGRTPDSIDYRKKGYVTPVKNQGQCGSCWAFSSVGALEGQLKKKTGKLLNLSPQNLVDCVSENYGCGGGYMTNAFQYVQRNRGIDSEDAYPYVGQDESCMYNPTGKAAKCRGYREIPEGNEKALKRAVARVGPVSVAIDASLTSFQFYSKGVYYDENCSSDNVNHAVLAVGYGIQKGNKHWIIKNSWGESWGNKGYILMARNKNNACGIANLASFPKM

Chains of the proteins cited; added tags and fusions are not shown. Lines headed by an entry give the natural chain unless they say otherwise; changes in a name come on top.
UniProt P07711: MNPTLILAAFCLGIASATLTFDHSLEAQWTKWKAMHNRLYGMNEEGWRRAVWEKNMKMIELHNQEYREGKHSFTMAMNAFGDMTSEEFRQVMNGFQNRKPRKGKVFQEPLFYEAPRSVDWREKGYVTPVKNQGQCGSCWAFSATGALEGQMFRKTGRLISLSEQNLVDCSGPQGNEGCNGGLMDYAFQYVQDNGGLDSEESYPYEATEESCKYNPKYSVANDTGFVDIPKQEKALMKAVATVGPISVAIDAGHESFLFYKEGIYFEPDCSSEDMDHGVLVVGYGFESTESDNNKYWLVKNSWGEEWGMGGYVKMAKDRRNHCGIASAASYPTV
UniProt P25774, whole entry, looked up: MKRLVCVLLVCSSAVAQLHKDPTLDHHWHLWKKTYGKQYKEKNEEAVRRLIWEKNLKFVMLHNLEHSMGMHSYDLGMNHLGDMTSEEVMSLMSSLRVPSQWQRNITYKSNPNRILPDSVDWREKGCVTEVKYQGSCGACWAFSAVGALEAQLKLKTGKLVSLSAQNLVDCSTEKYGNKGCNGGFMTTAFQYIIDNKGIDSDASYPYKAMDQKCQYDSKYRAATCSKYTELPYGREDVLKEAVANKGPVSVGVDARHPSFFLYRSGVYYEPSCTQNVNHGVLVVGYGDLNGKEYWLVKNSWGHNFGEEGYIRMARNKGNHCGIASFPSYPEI

Experiment [5] deals with Procathepsin L (Homo sapiens) (UniProt P07711). This is another data set of the same source.
For experiment [6], the target named is T1, Cathepsin K (Oryctolagus cuniculus). Description: Apparent inhibitory constant against rabbit cathepsin K.

For the compound `CN1CCN(c2nc(-c3ccc(C(=O)NC4(C(=O)N[C@@H]5C(=O)N[C@H]5Oc5ccccc5)CCCCC4)cc3)cs2)CC1`, the Ki'' in experiment [1] turned out to be 6 µM; in experiment [2] it was 1.1 µM; in experiment [3] it was 51 µM; in experiment [4] it was 0.0036 µM.
For the compound `CN1CCN(c2nc(-c3ccc(C(=O)NC4(C(=O)N[C@@H]5C(=O)N[C@@H]5Oc5ccccc5)CCCCC4)cc3)cs2)CC1`, the Ki'' in experiment [1] was found to be 0.34 µM; in experiment [5] it was 2.4 µM; in experiment [3], 17 µM; in experiment [6], 0.0048 µM.
